The record followed here is patent US20230322767A1, “ARYL SUBSTITUTED PYRROLO-PYRIDINONES AND THERAPEUTIC USES THEREOF” (Bayer Aktiengesellschaft, priority 2020, published 2023).

Chains of the proteins cited; added tags and fusions are not shown. Lines headed by an entry give the natural chain unless they say otherwise; changes in a name come on top.
UniProt P48729: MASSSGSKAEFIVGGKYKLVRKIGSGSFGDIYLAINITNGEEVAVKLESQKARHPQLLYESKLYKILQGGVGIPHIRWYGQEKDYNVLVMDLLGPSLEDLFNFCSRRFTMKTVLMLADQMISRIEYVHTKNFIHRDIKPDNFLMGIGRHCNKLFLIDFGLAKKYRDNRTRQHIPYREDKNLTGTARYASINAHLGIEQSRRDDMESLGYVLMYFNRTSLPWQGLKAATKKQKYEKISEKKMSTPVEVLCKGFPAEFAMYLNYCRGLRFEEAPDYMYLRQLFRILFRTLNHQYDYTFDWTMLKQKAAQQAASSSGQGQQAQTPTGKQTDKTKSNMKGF

In the test the target is CSNK1A1 (Homo sapiens (Human), UniProt P48729). Nature of the test: CSNK1A1 Assay 2 (ADP-Glo, 1 μM ATP). In kind it is biochemical. The note with it: median, read-out: CSNK1A1 Assay 2 IC50 [mol/l] (median). The protocol: CSNK1A1-inhibitory activity of compounds of the present invention in presence of 1 μM adenosine-tri-phosphate (ATP) was quantified employing the CSNK1A1 assay as described in the following paragraphs. In essence, the enzyme activity is measured by quantification of the adenosine-di-phosphate (ADP), which is generated as a co-product of the enzyme reaction, via the “ADP-Glo™ Kinase Assay” kit from the company Promega. This detection system works as follows: In a first step the ATP not consumed in the kinase reaction is quantitatively converted to cAMP employing an adenylate cyclase (“ADP-Glo-reagent”), then the adenylate cyclase is stopped and the ADP generated in the kinase reaction converted to ATP which generates in a luciferase-based reaction a glow-luminescence signal (“Kinase Detection Reagent”).
Recombinant fusion protein of N-terminal Glutathion-S-Transferase (GST) and full-length human CSNK1A1, expressed by baculovirus infected insect cells and purified via Glutathion affinity chromatography, was purchased from Life Technologies (product no. PV4174) and used as enzyme. […]
For the assay 50 nl of a 100 fold concentrated solution of the test compound in DMSO was pipetted into a white 1536-well microtiter plate (Greiner Bio-One, Frickenhausen, Germany), 2 μL of a solution of CSNK1A1 in aqueous assay buffer [50 mM HEPES pH 7.5, 10% (v/v) glycerol, 10 mM MgCl2, 50 mM NaCl, 1 mM dithiothreitol, 0.01% (w/v) bovine serum albumin, 0.01% (v/v) Triton X-100] were added and the mixture was incubated for 15 min at 22° C. to allow pre-binding of the test compounds to the enzyme before the start of the kinase reaction. […] Subsequently 2.5 μL of the “kinase detection reagent” (1.2 fold more concentrated than recommended by the producer) were added, the resulting mixture was incubated at 22° C. for 1 h and then the luminescence measured with a suitable measurement instrument (e.g. Viewlux™ from Perkin-Elmer). […]
In general terms: In ADP-Glo the light output rises with the ADP produced.

With `Cn1ccc2[nH]c(-c3ccnc(NC(=O)C(CC(F)F)c4ccc(F)cc4)c3)c(-c3ccccc3)c2c1=O` (racemic) [Example 6, 4,4-difluoro-2-(4-fluorophenyl)-N-[4-(5-methyl-4-oxo-3-phenyl-4,5-dihydro-1H-pyrrolo[3,2-c]pyridin-2-yl)pyridin-2-yl]butanamide], the IC50 is 2.5 nM.

On to `Cn1ccc2[nH]c(-c3ccnc(NC(=O)C(CC(F)F)c4ccc(F)cc4)c3)c(-c3ccccc3)c2c1=O` (single isomer, unassigned) [Example 8, 4,4-difluoro-2-(4-fluorophenyl)-N-[4-(5-methyl-4-oxo-3-phenyl-4,5-dihydro-1H-pyrrolo[3,2-c]pyridin-2-yl)pyridin-2-yl]butanamide], for which the IC50 is 0.94 nM.

For `Cn1ccc2[nH]c(-c3ccnc(NC(=O)C(CC(F)F)c4ccc(F)cc4)c3)c(-c3ccccc3)c2c1=O` (single isomer, unassigned) [Example 7, 4,4-difluoro-2-(4-fluorophenyl)-N-[4-(5-methyl-4-oxo-3-phenyl-4,5-dihydro-1H-pyrrolo[3,2-c]pyridin-2-yl)pyridin-2-yl]butanamide], the IC50 amounted to 7.3 nM.
